The target in the experiment is T1, Aurora kinase A (Homo sapiens) (UniProt O14965).
T1 sequence (whole entry): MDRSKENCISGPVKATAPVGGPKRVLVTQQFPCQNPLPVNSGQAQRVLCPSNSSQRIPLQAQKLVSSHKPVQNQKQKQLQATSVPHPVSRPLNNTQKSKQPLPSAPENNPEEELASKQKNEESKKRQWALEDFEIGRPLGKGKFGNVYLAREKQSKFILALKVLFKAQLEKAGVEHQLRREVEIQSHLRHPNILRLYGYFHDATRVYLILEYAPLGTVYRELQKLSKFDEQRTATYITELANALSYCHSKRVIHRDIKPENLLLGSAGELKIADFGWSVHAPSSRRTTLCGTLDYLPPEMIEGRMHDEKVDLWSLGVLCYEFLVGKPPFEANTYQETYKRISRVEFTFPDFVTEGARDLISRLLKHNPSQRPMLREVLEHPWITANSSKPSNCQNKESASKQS
Kind of experiment: Inhibition of STK6 at 1 uM in presence of 10 uM ATP by Select Screen kinase assay relative to untreated control. An outline of the steps: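 Commercial SelectScreen profiling panel of 220 purified kinases. Each kinase was tested at a single inhibitor concentration of 1 μM, and activity was expressed as percent inhibition.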

These results are taken from ChEMBL document CHEMBL1250448, “Inhibitor hijacking of Akt activation” (Nat Chem Biol, 2009).

Structures are written as SMILES.

Consider `Cc1n[nH]c2ccc(-c3cncc(OC[C@@H](N)Cc4c[nH]c5ccccc45)c3)cc12`, for which the inhibition stood at 16%.
